Measurements from patent US20190093159A1.

Target: nucleosome with H3K4me3 and H4Kac5 (H4 K5/8/12/16/20ac) (human) (UniProt P62805)
Assay: GST pull-down of the barcoded nucleosome library, sequencing read-out, normalised to the H3K4me3 variant

Q: How did the fold enhancement of binding efficiency compared to H3K4me3 alone turn out when “GST-tagged BPTF-PHD-BD (from UniProt Q12830 2865-3033)” was run?
A: 7 fold
